The nature of the data set: DSSTox (CPDBAS) Carcinogenic Potency Database Summary MultiCellCall Results. To be noted: animal carcinogenicity bioassays, multi-cell call summary. The source says:
The Carcinogenic Potency Database (CPDB) is a unique and widely used international resource of the results of over 6500 chronic, long-term animal cancer tests on over 1500 chemical substances. The CPDB provides easy access to the bioassay literature, with qualitative and quantitative analyses of both positive and negative experiments that have been published over the past 50 years in the general literature and by the National Cancer Institute/National Toxicology Program. The CPDB standardizes the diverse literature of cancer bioassays that vary widely in protocol, histopathological examination and nomenclature, and in the published author's choices of what information to provide in their papers. Results are reported in the CPDB for tests in rats, mice, hamsters, dogs, and nonhuman primates, and are based on the most positive result among all experiments for each sex-species. The DSSTox CPDBAS (all species) file incorporates data from the CPDB Summary Tables for the full list of over 1500 chemical substances tested in at least one species. A summary MultiCellCall, based on experimental bioassay results of one or more species, is provided in the DSSTox CPDBAS file (see Source URL) for more than 1150 chemical substances. […]

Some tests of the compounds listed are not included; inactive here does not mean inactive elsewhere. Active and inactive are the calls of the source.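 How the source made its calls: active means tumour findings in long-term animal cancer tests in more than one sex, species or organ; inactive means no tumour finding and more than one negative test.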

Turning to `N#CC(C#N)=Cc1ccccc1Cl`, the outcome was “inactive; multisex inactive; multispecies inactive”.

The values are drawn from PubChem BioAssay AID1205 (EPA DSSTox, 2008).
